Values quoted from earlier work as cited in publication PMC5490379 (Molecular pharmaceutics, 2017).

Target: σ2 receptor
Settings: read-out: Ki σ2; ref [30]; cited from earlier work

In the case of `COc1cccc2c1CCCC2CCCN1CCN(C2CCCCC2)CC1` (stereo not shown) [[^11C]PB28], the Ki is given as 5.92 nM.
